Patent US20260384438A1, “PYRROLOPYRIMIDINE CARBOXAMIDES” (published 2026)

Protein sequences, listed by entry. Tags and fused reporters are not part of them. Residues count along the entry.
UniProt Q9P286, whole entry: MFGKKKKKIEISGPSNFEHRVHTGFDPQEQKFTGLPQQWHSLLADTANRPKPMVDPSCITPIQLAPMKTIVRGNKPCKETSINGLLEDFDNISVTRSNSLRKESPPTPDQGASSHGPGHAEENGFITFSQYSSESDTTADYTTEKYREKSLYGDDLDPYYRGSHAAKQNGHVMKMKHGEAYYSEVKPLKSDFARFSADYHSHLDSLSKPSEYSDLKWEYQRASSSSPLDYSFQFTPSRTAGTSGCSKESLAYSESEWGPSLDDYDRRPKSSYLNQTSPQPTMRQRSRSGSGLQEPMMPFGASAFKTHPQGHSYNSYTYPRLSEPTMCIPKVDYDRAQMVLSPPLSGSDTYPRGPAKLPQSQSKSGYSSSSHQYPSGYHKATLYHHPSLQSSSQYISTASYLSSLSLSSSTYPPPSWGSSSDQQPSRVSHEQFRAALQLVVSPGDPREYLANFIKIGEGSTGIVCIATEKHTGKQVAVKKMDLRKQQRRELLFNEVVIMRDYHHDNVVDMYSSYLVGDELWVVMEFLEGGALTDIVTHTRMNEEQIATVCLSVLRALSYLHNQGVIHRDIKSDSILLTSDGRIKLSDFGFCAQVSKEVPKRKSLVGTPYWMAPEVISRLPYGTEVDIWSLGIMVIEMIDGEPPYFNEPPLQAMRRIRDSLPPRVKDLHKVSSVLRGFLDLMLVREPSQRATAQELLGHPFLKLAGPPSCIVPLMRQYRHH
UniProt Q13153, whole entry: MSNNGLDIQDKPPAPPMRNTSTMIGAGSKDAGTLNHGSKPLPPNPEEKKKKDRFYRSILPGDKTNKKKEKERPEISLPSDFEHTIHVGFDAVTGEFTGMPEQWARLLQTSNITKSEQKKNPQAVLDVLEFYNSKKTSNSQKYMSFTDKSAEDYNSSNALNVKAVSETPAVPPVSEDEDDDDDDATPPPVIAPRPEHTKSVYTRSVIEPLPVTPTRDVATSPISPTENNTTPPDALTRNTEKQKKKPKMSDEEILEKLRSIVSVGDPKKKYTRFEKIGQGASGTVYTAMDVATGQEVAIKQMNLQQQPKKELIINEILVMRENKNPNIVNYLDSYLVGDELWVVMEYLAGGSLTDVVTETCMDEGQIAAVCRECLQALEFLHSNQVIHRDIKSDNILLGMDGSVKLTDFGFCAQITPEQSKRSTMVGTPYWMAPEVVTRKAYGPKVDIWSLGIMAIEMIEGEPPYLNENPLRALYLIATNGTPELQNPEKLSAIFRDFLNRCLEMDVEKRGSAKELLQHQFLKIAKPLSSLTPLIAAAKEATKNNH
UniProt P54764, 20-986 limits assumed: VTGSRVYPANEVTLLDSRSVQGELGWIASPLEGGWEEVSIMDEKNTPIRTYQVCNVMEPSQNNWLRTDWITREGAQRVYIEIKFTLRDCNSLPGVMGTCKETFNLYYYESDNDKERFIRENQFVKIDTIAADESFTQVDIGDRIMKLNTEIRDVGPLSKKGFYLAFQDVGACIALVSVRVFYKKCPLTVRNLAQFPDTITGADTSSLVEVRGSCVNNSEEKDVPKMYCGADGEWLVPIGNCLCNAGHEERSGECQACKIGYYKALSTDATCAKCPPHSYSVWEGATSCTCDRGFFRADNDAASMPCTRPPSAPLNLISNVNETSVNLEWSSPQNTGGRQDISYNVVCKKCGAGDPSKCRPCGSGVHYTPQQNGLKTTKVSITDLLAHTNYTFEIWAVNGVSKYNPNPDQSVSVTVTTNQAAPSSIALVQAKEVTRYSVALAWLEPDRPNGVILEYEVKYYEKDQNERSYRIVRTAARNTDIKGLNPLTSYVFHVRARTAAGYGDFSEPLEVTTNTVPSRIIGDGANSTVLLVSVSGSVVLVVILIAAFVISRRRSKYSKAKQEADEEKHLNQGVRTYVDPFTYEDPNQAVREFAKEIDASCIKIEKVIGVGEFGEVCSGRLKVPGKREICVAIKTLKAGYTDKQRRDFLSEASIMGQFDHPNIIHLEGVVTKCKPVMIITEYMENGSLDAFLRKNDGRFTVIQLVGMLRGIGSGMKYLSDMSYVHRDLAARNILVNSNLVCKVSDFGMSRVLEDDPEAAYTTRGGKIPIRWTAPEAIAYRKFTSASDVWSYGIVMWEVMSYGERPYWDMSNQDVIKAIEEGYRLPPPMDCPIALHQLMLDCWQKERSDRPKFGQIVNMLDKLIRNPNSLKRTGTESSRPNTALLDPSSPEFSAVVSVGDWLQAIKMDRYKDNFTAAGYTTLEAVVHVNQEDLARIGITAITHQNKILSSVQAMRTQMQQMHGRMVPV
UniProt P27361, whole entry: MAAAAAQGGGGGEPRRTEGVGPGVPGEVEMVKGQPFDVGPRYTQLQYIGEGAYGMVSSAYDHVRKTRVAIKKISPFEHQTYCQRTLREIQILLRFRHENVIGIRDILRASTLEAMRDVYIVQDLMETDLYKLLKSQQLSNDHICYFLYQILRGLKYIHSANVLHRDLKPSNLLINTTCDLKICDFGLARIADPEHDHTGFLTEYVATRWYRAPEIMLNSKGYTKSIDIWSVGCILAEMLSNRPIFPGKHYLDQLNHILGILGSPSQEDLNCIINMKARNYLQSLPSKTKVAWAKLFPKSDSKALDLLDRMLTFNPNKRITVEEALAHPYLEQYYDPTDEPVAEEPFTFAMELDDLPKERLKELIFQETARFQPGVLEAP
UniProt Q9Y6M4, whole entry: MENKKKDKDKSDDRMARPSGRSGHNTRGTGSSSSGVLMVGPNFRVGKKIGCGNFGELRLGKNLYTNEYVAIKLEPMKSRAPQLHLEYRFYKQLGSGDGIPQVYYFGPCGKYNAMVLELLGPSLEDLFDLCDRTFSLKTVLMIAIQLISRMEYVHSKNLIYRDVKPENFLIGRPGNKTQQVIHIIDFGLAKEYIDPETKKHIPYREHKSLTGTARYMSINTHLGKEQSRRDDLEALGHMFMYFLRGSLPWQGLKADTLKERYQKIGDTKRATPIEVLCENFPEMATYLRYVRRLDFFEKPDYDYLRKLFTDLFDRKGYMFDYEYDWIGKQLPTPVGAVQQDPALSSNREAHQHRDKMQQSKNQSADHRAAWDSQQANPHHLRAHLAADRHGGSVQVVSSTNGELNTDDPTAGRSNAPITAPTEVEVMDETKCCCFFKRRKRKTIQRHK
UniProt P51956, whole entry: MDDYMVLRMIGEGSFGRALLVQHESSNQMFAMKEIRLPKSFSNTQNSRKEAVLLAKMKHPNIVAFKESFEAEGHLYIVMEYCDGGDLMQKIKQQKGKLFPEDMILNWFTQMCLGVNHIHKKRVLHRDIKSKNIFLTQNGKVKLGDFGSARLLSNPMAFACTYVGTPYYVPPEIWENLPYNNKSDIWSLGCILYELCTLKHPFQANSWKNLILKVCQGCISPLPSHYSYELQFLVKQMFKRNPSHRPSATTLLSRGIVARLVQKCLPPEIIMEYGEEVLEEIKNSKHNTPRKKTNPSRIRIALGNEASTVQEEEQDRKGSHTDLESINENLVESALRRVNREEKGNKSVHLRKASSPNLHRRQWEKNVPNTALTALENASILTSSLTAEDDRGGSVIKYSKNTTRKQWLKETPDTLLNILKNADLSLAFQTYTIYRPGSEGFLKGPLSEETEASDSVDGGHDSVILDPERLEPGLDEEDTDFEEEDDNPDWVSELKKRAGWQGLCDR
UniProt P16591, whole entry: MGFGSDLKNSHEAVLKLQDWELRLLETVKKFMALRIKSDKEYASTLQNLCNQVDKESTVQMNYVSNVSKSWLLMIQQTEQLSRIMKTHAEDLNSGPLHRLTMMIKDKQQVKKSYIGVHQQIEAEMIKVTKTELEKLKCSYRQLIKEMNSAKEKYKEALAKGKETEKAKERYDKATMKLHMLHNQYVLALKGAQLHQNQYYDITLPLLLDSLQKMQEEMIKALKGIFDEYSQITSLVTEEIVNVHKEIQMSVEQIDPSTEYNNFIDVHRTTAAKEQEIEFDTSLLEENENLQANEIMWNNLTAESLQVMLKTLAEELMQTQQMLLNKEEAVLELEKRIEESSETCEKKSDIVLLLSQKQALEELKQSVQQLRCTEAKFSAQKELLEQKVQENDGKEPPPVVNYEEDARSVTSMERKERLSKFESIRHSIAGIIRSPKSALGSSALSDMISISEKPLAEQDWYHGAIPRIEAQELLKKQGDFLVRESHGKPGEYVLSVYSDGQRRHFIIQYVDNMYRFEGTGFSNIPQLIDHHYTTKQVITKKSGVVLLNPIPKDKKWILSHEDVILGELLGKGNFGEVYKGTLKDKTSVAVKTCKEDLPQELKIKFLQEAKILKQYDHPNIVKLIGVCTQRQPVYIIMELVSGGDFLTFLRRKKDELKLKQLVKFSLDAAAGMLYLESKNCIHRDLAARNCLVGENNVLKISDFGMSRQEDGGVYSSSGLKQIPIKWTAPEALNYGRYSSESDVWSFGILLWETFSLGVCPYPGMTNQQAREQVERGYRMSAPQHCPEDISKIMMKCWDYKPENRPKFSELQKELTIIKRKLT
UniProt Q06418, 41-890 limits assumed: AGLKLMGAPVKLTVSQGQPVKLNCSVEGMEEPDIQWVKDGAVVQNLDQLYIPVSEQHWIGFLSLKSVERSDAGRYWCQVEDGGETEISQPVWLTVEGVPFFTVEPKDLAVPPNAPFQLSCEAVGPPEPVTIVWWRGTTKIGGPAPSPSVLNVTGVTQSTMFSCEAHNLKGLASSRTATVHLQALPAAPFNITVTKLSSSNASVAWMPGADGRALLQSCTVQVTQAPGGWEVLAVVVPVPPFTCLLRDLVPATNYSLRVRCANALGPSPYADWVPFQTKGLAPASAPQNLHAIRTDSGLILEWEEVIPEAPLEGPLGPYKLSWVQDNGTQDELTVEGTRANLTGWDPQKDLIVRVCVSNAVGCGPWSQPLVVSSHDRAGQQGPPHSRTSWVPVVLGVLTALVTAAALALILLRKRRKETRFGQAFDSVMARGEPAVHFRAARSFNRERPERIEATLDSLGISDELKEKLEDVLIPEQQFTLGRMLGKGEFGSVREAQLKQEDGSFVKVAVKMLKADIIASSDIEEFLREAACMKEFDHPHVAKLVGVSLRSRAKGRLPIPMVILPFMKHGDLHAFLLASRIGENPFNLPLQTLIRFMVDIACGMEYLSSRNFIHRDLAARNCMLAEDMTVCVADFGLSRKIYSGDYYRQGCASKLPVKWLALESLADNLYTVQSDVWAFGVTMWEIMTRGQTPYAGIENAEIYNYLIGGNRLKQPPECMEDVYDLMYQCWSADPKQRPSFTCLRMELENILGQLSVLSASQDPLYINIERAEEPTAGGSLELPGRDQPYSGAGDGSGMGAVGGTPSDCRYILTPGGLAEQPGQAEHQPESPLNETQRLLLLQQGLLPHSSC
UniProt Q16539, whole entry: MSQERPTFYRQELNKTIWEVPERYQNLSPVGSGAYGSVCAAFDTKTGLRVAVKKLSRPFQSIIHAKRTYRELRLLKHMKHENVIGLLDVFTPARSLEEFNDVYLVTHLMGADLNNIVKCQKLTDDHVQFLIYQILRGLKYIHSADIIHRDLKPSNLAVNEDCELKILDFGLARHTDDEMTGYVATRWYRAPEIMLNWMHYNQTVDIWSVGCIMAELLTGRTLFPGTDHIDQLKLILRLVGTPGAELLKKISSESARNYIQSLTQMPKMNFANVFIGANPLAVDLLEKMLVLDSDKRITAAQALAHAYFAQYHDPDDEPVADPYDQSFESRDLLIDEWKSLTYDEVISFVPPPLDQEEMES
UniProt P11362, 22-822 limits assumed: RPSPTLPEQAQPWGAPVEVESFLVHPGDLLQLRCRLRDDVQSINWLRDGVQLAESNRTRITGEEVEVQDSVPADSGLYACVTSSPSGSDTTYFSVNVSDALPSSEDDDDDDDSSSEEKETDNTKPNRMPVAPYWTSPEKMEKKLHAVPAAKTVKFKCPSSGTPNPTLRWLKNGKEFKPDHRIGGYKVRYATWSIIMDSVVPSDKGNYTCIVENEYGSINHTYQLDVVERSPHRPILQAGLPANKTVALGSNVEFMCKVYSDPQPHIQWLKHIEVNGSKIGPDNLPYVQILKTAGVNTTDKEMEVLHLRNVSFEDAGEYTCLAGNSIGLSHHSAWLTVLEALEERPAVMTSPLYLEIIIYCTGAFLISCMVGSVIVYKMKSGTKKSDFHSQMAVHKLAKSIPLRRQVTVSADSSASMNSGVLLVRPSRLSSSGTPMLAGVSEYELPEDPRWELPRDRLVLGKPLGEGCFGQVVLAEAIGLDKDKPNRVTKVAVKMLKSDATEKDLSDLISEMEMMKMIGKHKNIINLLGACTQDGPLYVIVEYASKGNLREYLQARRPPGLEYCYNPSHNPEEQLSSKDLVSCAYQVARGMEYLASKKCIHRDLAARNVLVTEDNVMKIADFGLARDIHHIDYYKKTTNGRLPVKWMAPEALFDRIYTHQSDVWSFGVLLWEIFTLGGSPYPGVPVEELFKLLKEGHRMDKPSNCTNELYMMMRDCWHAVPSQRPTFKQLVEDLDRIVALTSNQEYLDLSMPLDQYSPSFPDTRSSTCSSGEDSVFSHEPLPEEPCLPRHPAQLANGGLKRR

Key:
PAK7 (KIAA1264) = PAK7 (KIAA1264) (Homo sapiens, UniProt Q9P286); experiment: Kinase profiling, Z-Lyte; settings: 1 μM, KmATP
PRKCZ (PKC zeta) = PRKCZ (PKC zeta) (Homo sapiens, UniProt Q05513); experiment: Kinase profiling, Z-Lyte; settings: 1 μM, KmATP
EPHB1 = EPHB1 (Homo sapiens, UniProt P54762); experiment: Kinase profiling, Z-Lyte
MST4 = MST4 (Homo sapiens, UniProt Q9P289); experiment: Kinase profiling, Z-Lyte; settings: 1 μM, KmATP
BTK = BTK (Homo sapiens, UniProt Q06187); experiment: Kinase profiling, Z-Lyte; settings: 1 μM, KmATP
PAK4 = PAK4 (Homo sapiens, UniProt O96013); experiment: Kinase profiling, Z-Lyte; settings: 1 μM, KmATP
SYK = SYK (Homo sapiens, UniProt P43405); experiment: Kinase profiling, Z-Lyte; settings: 1 μM, KmATP
CDK5/p25 = CDK5/p25 (Homo sapiens, UniProt Q00535); experiment: Kinase profiling, Z-Lyte; settings: 1 μM, KmATP
GRK4 = GRK4 (Homo sapiens, UniProt P32298); experiment: Kinase profiling, Z-Lyte; settings: 1 μM, KmATP
PRKCH (PKC eta) = PRKCH (PKC eta) (Homo sapiens, UniProt P24723); experiment: Kinase profiling, Z-Lyte; settings: 1 μM, KmATP
PAK1 = PAK1 (Homo sapiens, UniProt Q13153); experiment: Kinase profiling, Z-Lyte; settings: 1 μM, KmATP
EPHA4 = EPHA4 (Homo sapiens, UniProt P54764); experiment: Kinase profiling, Z-Lyte
MAPK3 (ERK1) = MAPK3 (ERK1) (Homo sapiens, UniProt P27361); experiment: Kinase profiling, Z-Lyte; settings: 1 μM, KmATP
NTRK1 (TRKA) = NTRK1 (TRKA) (Homo sapiens, UniProt P04629); experiment: Kinase profiling, Z-Lyte; settings: 1 μM, KmATP
STK25 (YSK1) = STK25 (YSK1) (Homo sapiens, UniProt O00506); experiment: Kinase profiling, Z-Lyte; settings: 1 μM, KmATP
AMPK A2/B1/G1 = AMPK A2/B1/G1 (Homo sapiens, UniProt P54646); experiment: Kinase profiling, Z-Lyte; settings: 1 μM, KmATP
CSNK1G3 (CK1gamma3) = CSNK1G3 (CK1gamma3) (Homo sapiens, UniProt Q9Y6M4); experiment: Kinase profiling, Z-Lyte; settings: 1 μM, KmATP
SRPK1 = SRPK1 (Homo sapiens, UniProt Q96SB4); experiment: Kinase profiling, Z-Lyte; settings: 1 μM, KmATP
AURKC (Aurora C) = AURKC (Aurora C) (Homo sapiens, UniProt Q9UQB9); experiment: Kinase profiling, Z-Lyte; settings: 1 μM, KmATP
PRKCG (PKC gamma) = PRKCG (PKC gamma) (Homo sapiens, UniProt P05129); experiment: Kinase profiling, Z-Lyte; settings: 1 μM, KmATP
NEK3 = NEK3 (Homo sapiens, UniProt P51956); experiment: KAT chemical proteomics
PGK1 = PGK1 (Homo sapiens, UniProt P00558); experiment: KAT chemical proteomics
ACVRL1 = ACVRL1 (Homo sapiens, UniProt P37023); experiment: KAT chemical proteomics
PIM2 = PIM2 (Homo sapiens, UniProt Q9P1W9); experiment: KAT chemical proteomics
SMG1 = SMG1 (Homo sapiens, UniProt Q96Q15); experiment: KAT chemical proteomics
BMP2K = BMP2K (Homo sapiens, UniProt Q9NSY1); experiment: KAT chemical proteomics
RPS6KA5 = RPS6KA5 (Homo sapiens, UniProt O75582); experiment: KAT chemical proteomics
FER = FER (Homo sapiens, UniProt P16591); experiment: KAT chemical proteomics
TYRO3 = TYRO3 (Homo sapiens, UniProt Q06418); experiment: KAT chemical proteomics
EPHA2 = EPHA2 (Homo sapiens, UniProt P29317); experiment: KAT chemical proteomics
MAP2K4 = MAP2K4 (Homo sapiens, UniProt P45985); experiment: KAT chemical proteomics
MAPK14 = MAPK14 (Homo sapiens, UniProt Q16539); experiment: KAT chemical proteomics
CDK19 = CDK19 (Homo sapiens, UniProt Q9BWU1); experiment: KAT chemical proteomics
NEK7 = NEK7 (Homo sapiens, UniProt Q8TDX7); experiment: KAT chemical proteomics
CHEK2 = CHEK2 (Homo sapiens, UniProt O96017); experiment: KAT chemical proteomics
FGFR1 = FGFR1 (Homo sapiens, UniProt P11362); experiment: KAT chemical proteomics
CYP2C19 = CYP2C19 (Homo sapiens, UniProt P33261); experiment: CYP time dependent inhibition, CYP2C19; settings: 10 μM, 30 min preincubation, HLM
[1] = Aqueous (thermodynamic) solubility, pH 7.4; settings: 0.1 M phosphate buffer pH 7.4, 24 h, 25 °C
PKMYT1 = PKMYT1 (Homo sapiens, UniProt Q99640); experiment: NanoBRET target engagement in HEK293T cells, PKMYT1; settings: read-out: PKMYT1 INHIBITION IC50, 2 h

Compound: Cc1nc(C(F)(F)F)c2c(C(N)=O)c(N)n(-c3c(C)ccc(O)c3C)c2n1 (single isomer, unassigned)
- MEAN INHIBITION (PAK7 (KIAA1264)): 1.008%
- MEAN INHIBITION (PRKCZ (PKC zeta)): 13.234%
- MEAN INHIBITION (EPHB1; 1 μM, KmATP): 63.359%
- IC50 (EPHB1; 10-point CR, ATP 50.000 μM): 361 nM
- MEAN INHIBITION (MST4): 6.444%
- MEAN INHIBITION (BTK): 16.116%
- MEAN INHIBITION (PAK4): −12.759%
- MEAN INHIBITION (SYK): 5.317%
- MEAN INHIBITION (CDK5/p25): 3.607%
- MEAN INHIBITION (GRK4): 3.928%
- MEAN INHIBITION (PRKCH (PKC eta)): 4.761%
- MEAN INHIBITION (PAK1): 4.877%
- MEAN INHIBITION (EPHA4; 1 μM, KmATP): 34.195%
- IC50 (EPHA4; 10-point CR, ATP 100.000 μM): 1140 nM
- MEAN INHIBITION (MAPK3 (ERK1)): −0.113%
- MEAN INHIBITION (NTRK1 (TRKA)): 12.557%
- MEAN INHIBITION (STK25 (YSK1)): 1.849%
- MEAN INHIBITION (AMPK A2/B1/G1): 1.980%
- MEAN INHIBITION (CSNK1G3 (CK1gamma3)): 1.739%
- MEAN INHIBITION (SRPK1): 4.608%
- MEAN INHIBITION (AURKC (Aurora C)): −0.353%
- MEAN INHIBITION (PRKCG (PKC gamma)): −5.908%
- RB50 (NEK3): >50 µM
- RB50 (PGK1): >50 µM
- RB50 (ACVRL1): 12 nM
- RB50 (PIM2): >50 µM
- RB50 (SMG1): >50 µM
- RB50 (BMP2K): >50 µM
- RB50 (RPS6KA5): >50 µM
- RB50 (FER): >50 µM
- RB50 (TYRO3): >50 µM
- RB50 (EPHA2): 48.5 nM
- RB50 (MAP2K4): >50 µM
- RB50 (MAPK14): >50 µM
- RB50 (CDK19): >50 µM
- RB50 (NEK7): >50 µM
- RB50 (CHEK2): >50 µM
- RB50 (FGFR1): >50 µM
- % time dependent inhibition (TDI), CYP2C19 (CYP2C19): less than 20%
- Solubility pH 7.4 [1]: 1541 μM
- IC50 (PKMYT1): 9 nM
